Legend:
[1] = system: Bcl-2 3256 cells (Bcl-2 dependent)
[2] = system: Mcl-1 2640 cells (Mcl-1 dependent); assay: BH3 profiling, Mcl-1 2640; type: cell-based, murine; conditions: 5 μM peptide
In short: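 Myc-driven murine leukemia line, Mcl-1 dependent, grown in RPMI 1640 with 10% FBS and […] 2-mercaptoethanol. Permeabilized cells at 2×10^4/well, triplicate wells, exposed to peptides including 5 μM. JC-1 read-out; depolarization expressed as percentage relative to FCCP (full) and DMSO (none). At least three biological replicates.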

`CSCC[C@H](NC(=O)[C@@H](NC(=O)[C@H](CCCNC(=N)N)NC(=O)[C@H](CCC(N)=O)NC(=O)[C@H](Cc1c[nH]cn1)NC(=O)[C@H](CC(C)C)NC(=O)[C@H](CCC(=O)O)NC(=O)[C@H](CC(=O)O)NC(=O)CNC(=O)[C@H](CC(C)C)NC(=O)[C@H](C)NC(=O)[C@H](CCCCN)NC(=O)[C@H](CC(C)C)NC(=O)[C@H](CCCNC(=N)N)NC(=O)[C@H](C)NC(=O)[C@H](C)NC(=O)[C@@H](NC(=O)[C@H](CC(C)C)NC(=O)[C@H](CCC(N)=O)NC(=O)[C@H](C)NC(=O)[C@H](C)NC(=O)[C@H](CO)NC(C)=O)[C@@H](C)O)[C@@H](C)O)C(=O)N[C@@H](Cc1c[nH]c2ccccc12)C(N)=O` [Hrk, reference compound] was tested, and the EC50 [1] was greater than 10 µM and the “depolarization in the Mcl-1 dependent line (in words)” value [2] was “low amount of depolarization”.

From article PMC4357494 (Journal of molecular biology, 2014)
